The nature of this data set: In vivo brain exposure (Cu,br/Cu,pl) under steady-state like conditions after intravenous administration. The conditions noted are these: rat, i.v. bolus plus infusion; for In vivo Cu,br/Cu,pl (homog.) Mean steady-state: Cbr/Cpl x fubr/fupl with fu,br from brain homogenate; for In vivo Cu,br/Cu,pl (slice) Mean steady-state: Cbr/Cpl x fubr/fupl with fu,br from brain slice.

Each structure is given as a SMILES string.

With `CN1CC[C@]23c4c5ccc(O)c4O[C@H]2[C@@H](O)C=C[C@H]3[C@H]1C5` [Morphine], the “In vivo Cu,br/Cu,pl (homog.) Mean steady-state” value came to 0.20 and the “In vivo Cu,br/Cu,pl (slice) Mean steady-state” value is recorded as 0.15.

Turning to `CN1C(=O)CN=C(c2ccccc2)c2cc(Cl)ccc21` [Diazepam], the “In vivo Cu,br/Cu,pl (homog.) Mean steady-state” value is on record as 0.49 and the “In vivo Cu,br/Cu,pl (slice) Mean steady-state” value is recorded as 0.49.

Source of the values: paper PMC3849192, “A Simple Method for Assessing Free Brain/Free Plasma Ratios Using an In Vitro Model of the Blood Brain Barrier” (PLoS ONE, 2013).
